Measurements taken from ChEMBL document CHEMBL5506027, “Discovery of a Novel and Potent Cyclin-Dependent Kinase 8/19 (CDK8/19) Inhibitor for the Treatment of Cancer” (J Med Chem, 2024).

Legend:
[1] = Selectivity ratio of IC50 for CDK1/CyclinA2 (unknown origin) to IC50 for CDK8/Cyclin C (unknown origin)
[2] = Selectivity ratio of IC50 for CDK5/p35NCK (unknown origin) to IC50 for CDK8/Cyclin C (unknown origin)
[3] = Selectivity ratio of IC50 for CDK5/p25NCK (unknown origin) to IC50 for CDK8/Cyclin C (unknown origin)
[4] = Selectivity ratio of IC50 for CDK2/CyclinE1 (unknown origin) to IC50 for CDK8/Cyclin C (unknown origin)
[5] = Selectivity ratio of IC50 for CDK7/CyclinH/MAT1 (unknown origin) to IC50 for CDK8/Cyclin C (unknown origin)
[6] = Selectivity ratio of IC50 for CDK2/CyclinA2 (unknown origin) to IC50 for CDK8/Cyclin C (unknown origin)

Ratio IC50 [1]: 31.5
Ratio IC50 [2]: 25.8
Ratio IC50 [3]: 11.7
Ratio IC50 [4]: 4.2
Ratio IC50 [5]: 26.3
Ratio IC50 [6]: 5.7
Structure (SMILES): FC(F)c1c(Br)c(Br)cc2c1nc(N1CCNCC1)n2C1CCOCC1
